The text below walks through data of paper PMC4357715, “The beta hairpin structure within ribosomal protein S5 mediates interplay between domains II and IV and regulates HCV IRES function” (Nucleic Acids Research, 2015).

In one assay the test system is HCV IRES and RPS5. Briefly: Competition UV cross-linking of HCV IRES and rRPS5 in presence of S5 derived peptides. It counts as binding. The following applies: 100 fmol 32P-labelled HCV IRES, 4 pmol rRPS5; 100- and 200-fold molar excess of peptide. The procedure:
UV cross-linking assay was performed as reported earlier ([17]). In UV cross linking assay α-^32P-labelled HCV IRES RNA (18–383) or HCV 3′ UTR was allowed to form complex with the purified recombinant ribosomal protein S5 (rRPS5) or purified 40S ribosome subunit in binding buffer (5 mM HEPES pH 7.6, 25 mM KCl, 2 mM MgCl2, 3.8% glycerol, 2 mM dithiothreitol, 0.1 mM EDTA) at 30°C for 15 min. These RNA–protein complexes were then irradiated with UV light (254 nm) for 25 min on ice. The excess RNA was digested with RNase A (Sigma) for 30 min at 37°C and UV cross-linked complex was resolved on SDS-polyacrylamide gel, which was dried before it was exposed to the phosphor-Imager cassette. In case of competition UV cross-linking experiments, RNA–protein complex formation was performed in presence of the un-labelled RNAs or peptides.
Figure 1. Characterization of the region of RPS5 involved in HCV IRES–RPS5 interaction. (A) Model depicting the interaction of RPS5 with the domains of IRES. […] Apparent Kd values were calculated using nonlinear regression applied by Graphpad Prism 6. […]
(§1) Next, we aimed to validate the results obtained by computational modelling through other experimental approaches. […] The dissociation constant Kd was determined using GraphPad Prism 6 software. […]

A further assay has as its system HCV IRES. Briefly: Filter binding assay of peptides with 32P-labelled HCV IRES. On the set-up: species or system Hepatitis C Virus. To be noted: 30°C; for interaction with the HCV IRES: % RNA retained, 25 fmol 32P-labelled HCV IRES, increasing peptide concentration, three independent experiments. How it is done: (§2) Filter binding assay was performed as described earlier ([17]). The α-^32P-labelled HCV 18–383 RNA was incubated with increasing concentrations of peptides at 30°C for 15 min in RNA binding buffer (5 mM 4-(2-hydroxyethyl)-1-piperazineethanesulfonic acid (HEPES), pH 7.6, 25 mMKCl, 2 mM MgCl2, 3.8% glycerol, 2 mM dithiothreitol and 0.1 mM ethylenediaminetetraacetic acid (EDTA)), and loaded onto nitrocellulose filters. The filters were then washed twice with 1 ml of ice-cold 1× binding buffer and once with absolute ethanol dried. The counts retained on the membranes were measured with a liquid scintillation counter. Kd values were calculated using nonlinear regression applied by GraphPad Prism 6. Each experiment was repeated three times.
Figure 1. Characterization of the region of RPS5 involved in HCV IRES–RPS5 interaction. (A) Model depicting the interaction of RPS5 with the domains of IRES. The amino acid residues of RPS5 involved in the interaction are indicated in yellow, the RPS5 protein in blue, the domain II in red and the SLIV in brown. (B) Model depicting interaction of RPS5 with the domains of IRES with the nucleotides involved in interaction indicated in yellow. (C) Schematic representation of peptides derived from RNA binding region of RPS5. (D) Filter binding analysis of the interaction between HCV IRES and peptides derived from RNA binding region of RPS5 protein (S5M1 and S5C2) and a non-specific peptide (NSPS5). The indicated peptides were incubated with 25fmol of ^32P body labelled HCV IRES at 30°C before applying it on nitrocellulose membrane. Percentage of RNA retained on the nitrocellulose membrane was plotted against peptide concentration. Average of three independent experiments was used to plot the graph. Apparent Kd values were calculated using nonlinear regression applied by Graphpad Prism 6. […]
as §1

Assay [1] deals with non-specific RNA (NSP RNA). Briefly: Filter binding assay of S5M1 with non-specific RNA. To be noted: average of three independent experiments. The procedure: as §2
Figure 1. Characterization of the region of RPS5 involved in HCV IRES–RPS5 interaction. (A) Model depicting the interaction of RPS5 with the domains of IRES. The amino acid residues of RPS5 involved in the interaction are indicated in yellow, the RPS5 protein in blue, the domain II in red and the SLIV in brown. […] Apparent Kd values were calculated using nonlinear regression applied by Graphpad Prism 6. […]
as §1

Entries after “also recorded” stand apart in the source; their conditions may differ.

In the case of “S5M1: synthetic 26aa peptide (P121-R146) from RPS5; amino acids forming a beta hairpin structure”, the “competition with rRPS5 for binding with HCV IRES” value with HCV IRES and RPS5 is on record as “competed with full-length rRPS5 for binding with the HCV IRES”. Besides, the “interaction with the HCV IRES” value in the assay on HCV IRES was “specific interaction with the HCV IRES; also recorded: interacted specifically with HCV IRES”. For the same substance, the Kd on HCV IRES (nitrocellulose, 25 fmol 32P-labelled HCV 18–383 RNA, 15 min, RNA binding buffer 5 mM HEPES pH 7.6, 25 mM KCl, nonlinear regression GraphPad Prism 6, average of three independent experiments, read-out: apparent dissociation constant Kd) is 5.6 ± 0.67 µM. The “interaction with non-specific RNA (NSP RNA)” value in assay [1] was “not with a non-specific RNA (NSP RNA)”.
As to “S5C2: synthetic 26aa peptide (N179-R204) derived from the C-terminal end of RPS5”, the “competition with rRPS5 for binding with HCV IRES” value in the assay on HCV IRES and RPS5 was “could not interfere with IRES-RPS5”. Further, the “interaction with the HCV IRES” value in the assay with HCV IRES was “did not show any appreciable interaction with the HCV IRES; also recorded: did not show significant interaction with IRES”.
